Tested on: cancer stem cell
Assay: LGR5-iCT/CMV-GFP organoid screening, tdTomato fluorescence
Format: cell-based, human
Details: final concentration shown in FIG. 8; DMSO control
Excerpt: A CMV-GFP construct was further introduced into the LGR5-iCT organoid prepared in Experimental Example 4. In the CMV-GFP construct, a GFP gene was linked downstream of the CMV promoter, which is the forced expression promoter. Therefore, regardless of whether or not the LGR5 gene was expressed, the GFP gene was expressed in all cells and emitted fluorescence of the GFP protein. Hereinafter, these organoids may be referred to as “LGR5-iCT/CMV-GFP organoids” in some cases.
In the LGR5-iCT/CMV-GFP organoid, survival activity of the cancer cell can be observed by fluorescence of GFP, and survival activity of the cancer stem cell can be observed by fluorescence of tdTomato.
Using the LGR5-iCT/CMV-GFP organoid, high-throughput screening of existing anticancer drugs used for the treatment of colon cancer was performed, and the effects on the cancer cells and the cancer stem cells were examined.
FIG. 8 is a micrograph of an organoid showing a typical result. In FIG. 8, “BRIGHT FIELD” indicates a bright field observation image. “CMV-GFP” indicates a fluorescence micrograph obtained by observing GFP fluorescence”. “LGR5-tdTomato” indicates a fluorescence micrograph obtained by observing tdTomato fluorescence. “Merge” indicates the result obtained by synthesizing the bright-field observation image, the GFP fluorescence micrograph, and the micrograph of tdTomato fluorescence. […]

Cetuximab was tested, and the “effect against the cancer stem cell (tdTomato fluorescence)” value was “significantly increases the survival activity”.

— patent US11698366B2, “Human tissue stem cell and use thereof” (KEIO UNIVERSITY, priority 2017, dated 2023)
